Measured values published in patent US9073917B2, “Anti-cancer compound and pharmaceutical composition containing the same” (SANOFI, priority 2009, dated 2015).
pIC50: −log10 of the molar value.

Amino acid sequences for entries named in this document (tags omitted).
UniProt Q96GD4, whole entry: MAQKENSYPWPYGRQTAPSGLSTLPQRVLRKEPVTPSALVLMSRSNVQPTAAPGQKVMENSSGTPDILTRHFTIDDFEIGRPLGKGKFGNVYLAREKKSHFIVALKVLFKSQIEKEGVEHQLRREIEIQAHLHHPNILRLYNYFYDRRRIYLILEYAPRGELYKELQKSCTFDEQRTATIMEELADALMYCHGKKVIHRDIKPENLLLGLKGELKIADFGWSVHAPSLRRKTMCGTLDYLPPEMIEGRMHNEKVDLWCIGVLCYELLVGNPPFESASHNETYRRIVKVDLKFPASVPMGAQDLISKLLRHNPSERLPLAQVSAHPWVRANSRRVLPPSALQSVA

Target: Aurora B/Incenp (Homo sapiens (Human), UniProt Q96GD4)
Assay: Aurora B/Incenp kinase activity, radioactive 33P incorporation into NuMA fragment

`CCOC(=O)c1[nH]cc2c1NC1=C(C(=O)CCC1)[C@@H]2c1ccc(Sc2nc3ccccc3[nH]2)o1` [Example 12] was tested, and the pIC50 was 8.52.
